Values quoted from earlier work in patent publication US20210137911A1, “NOVEL CHRONOTHERAPY BASED ON CIRCADIAN RHYTHMS” (THE TRUSTEES OF THE UNIVERSITY OF PENNSYLVANIA, priority 2014, published 2021).

Conditions: in vivo; cited from earlier work

## CN1CC[C@]23c4c5ccc(O)c4O[C@H]2C(=O)CC[C@H]3[C@H]1C5 [Hydromorphone]
  ½ Life: 2.6 h
